The assay addresses AKR1C3 (Homo sapiens (Human), UniProt P42330). The assay is described as follows: AKR enzyme inhibition assay, NADP+ dependent oxidation of S-tetralol, AKR1C3. In kind it is biochemical.

Sequences of proteins named here, by UniProt entry; tags and fusion partners are left off. A change or cut given only in a name is not applied to a line headed by its entry.
UniProt P42330: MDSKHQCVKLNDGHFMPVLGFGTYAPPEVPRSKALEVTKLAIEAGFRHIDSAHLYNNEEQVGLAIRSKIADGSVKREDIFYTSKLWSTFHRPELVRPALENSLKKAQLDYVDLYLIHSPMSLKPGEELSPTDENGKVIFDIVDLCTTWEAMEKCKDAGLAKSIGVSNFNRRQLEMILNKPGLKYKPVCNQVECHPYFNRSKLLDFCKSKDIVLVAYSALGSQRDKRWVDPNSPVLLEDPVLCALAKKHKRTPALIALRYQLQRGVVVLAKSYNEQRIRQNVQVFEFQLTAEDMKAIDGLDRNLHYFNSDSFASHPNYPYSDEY

As for `Cc1ccc(CNC(=O)c2cc(/C=C/C(=O)O)cc(-c3ccc(Br)cc3)c2)cc1` [Compound A1-b, (E)-3-(4′-Bromo-5-((4-methylbenzyl)carbamoyl)-[1,1′-biphenyl]-3-yl)acrylic acid], the “Selectivity 1C2:1C3” value (Table 2, ratio of AKR1C2 to AKR1C3 IC50) is 277.

For `Cc1ccc(CNC(=O)c2cc(/C=C/C(=O)O)cc(-c3ccc4c(c3)OCO4)c2)cc1` [Compound A1-t, (E)-3-(3-(Benzo[d][1,3]dioxol-5-yl)-5-((4-methylbenzyl)carbamoyl)phenyl)acrylic acid], the “selectivity over AKR1C2” value (AKR1C3 over AKR1C2) worked out at 327 fold.

Values taken from US20260035340A1, “INHIBITORS OF AKR1C3 AND METHODS OF USE” (BOARD OF REGENTS OF THE UNIVERSITY OF NEBRASKA, priority 2022, published 2026).
